Measurements taken from publication PMC10041147 (RSC Advances, 2023).
Read-outs that look alike come from different tables or passages of the source.

Target: Concanavalin A (ConA) (Canavalia ensiformis, UniProt P02866)
Type: binding
Details: ConA sensor

mannan [mannan (4)]
Kd (read-out: K d from CV, cyclic voltammetry): 10 ± 5 µM
Kd (read-out: K d from DPV, differential pulse voltammetry): 3 ± 1 µM
